Data published in PubChem BioAssay (NCI).
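Five concentrations, 48 hours, 96-well plates. The concentration for full growth arrest is given as TGI.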

Legend:
Assay in all cases: growth of human tumour cells (NCI), 48 h
[1] = tested on: 786-0 renal
[2] = tested on: A498 renal
[3] = tested on: A549 NSCLC
[4] = tested on: ACHN renal
[5] = tested on: BT-549 breast
[6] = tested on: CAKI-1 renal
[7] = tested on: CCRF-CEM leukemia
[8] = tested on: DU-145 prostate
[9] = tested on: EKVX NSCLC
[10] = tested on: HCC-2998 colon
[11] = tested on: HCT-116 colon
[12] = tested on: HCT-15 colon
[13] = tested on: HL-60(TB) leukemia
[14] = tested on: HOP-62 NSCLC
[15] = tested on: HOP-92 NSCLC
[16] = tested on: HS 578T breast
[17] = tested on: HT29 colon
[18] = tested on: IGROV1 ovarian
[19] = tested on: KM12 colon
[20] = tested on: LOX IMVI melanoma
[21] = tested on: M14 melanoma
[22] = tested on: MALME-3M melanoma
[23] = tested on: MCF7 breast
[24] = tested on: MDA-MB-231 breast
[25] = tested on: MDA-MB-435
[26] = tested on: MDA-N
[27] = tested on: NCI-H23 lung
[28] = tested on: NCI-H522 lung
[29] = tested on: NCI/ADR-RES ovarian
[30] = tested on: OVCAR-3 ovarian
[31] = tested on: OVCAR-4 ovarian
[32] = tested on: OVCAR-5 ovarian
[33] = tested on: OVCAR-8 ovarian
[34] = tested on: PC-3 prostate
[35] = tested on: RXF 393 renal
[36] = tested on: SF-268 CNS
[37] = tested on: SK-MEL-2 melanoma
[38] = tested on: SK-MEL-28 melanoma
[39] = tested on: SK-OV-3 ovarian
[40] = tested on: SN12C renal
[41] = tested on: SNB-19 CNS
[42] = tested on: SW-620 colon
[43] = tested on: T-47D breast
[44] = tested on: TK-10 renal
[45] = tested on: U251 CNS
[46] = tested on: UACC-257 melanoma
[47] = tested on: UACC-62 melanoma
[48] = tested on: UO-31 renal

## COc1ccc2c3c1O[C@H]1C4(OC)C=CC5(C6C(=O)NNC(=O)C64)C(C2)N(C)CCC315 (stereo partly drawn)
[1]
  TGI: > 100 µM
[2]
  TGI: > 100 µM
[3]
  TGI: > 100 µM
[4]
  TGI: > 100 µM
[5]
  TGI: > 100 µM
[6]
  TGI: > 100 µM
[7]
  TGI: > 100 µM
[8]
  TGI: > 100 µM
[9]
  TGI: > 100 µM
[10]
  TGI: > 100 µM
[11]
  TGI: > 100 µM
[12]
  TGI: > 100 µM
[13]
  TGI: > 100 µM
[14]
  TGI: > 100 µM
[15]
  TGI: > 100 µM
[16]
  TGI: > 100 µM
[17]
  TGI: > 100 µM
[18]
  TGI: > 100 µM
[19]
  TGI: > 100 µM
[20]
  TGI: > 100 µM
[21]
  TGI: > 100 µM
[22]
  TGI: > 100 µM
[23]
  TGI: > 100 µM
[24]
  TGI: > 100 µM
[25]
  TGI: > 100 µM
[26]
  TGI: > 100 µM
[27]
  TGI: > 100 µM
[28]
  TGI: > 100 µM
[29]
  TGI: > 100 µM
[30]
  TGI: > 100 µM
[31]
  TGI: > 100 µM
[32]
  TGI: > 100 µM
[33]
  TGI: > 100 µM
[34]
  TGI: > 100 µM
[35]
  TGI: > 100 µM
[36]
  TGI: > 100 µM
[37]
  TGI: > 100 µM
[38]
  TGI: 93.5 µM
[39]
  TGI: > 100 µM
[40]
  TGI: > 100 µM
[41]
  TGI: > 100 µM
[42]
  TGI: > 100 µM
[43]
  TGI: > 100 µM
[44]
  TGI: > 100 µM
[45]
  TGI: > 100 µM
[46]
  TGI: > 100 µM
[47]
  TGI: > 100 µM
[48]
  TGI: > 100 µM
